Reference: patent US12128018B2, “Combination of a selective histone deacetylase 3 (HDAC3) inhibitor and an immunotherapy agent for the treatment of cancer” (KDAc Therapeutics, Inc., priority 2018, dated 2024)

Tested on: MHC class II (IA-IE) in P388D1 cells
Test: in vitro induction of MHC class II (IA-IE) in P388D1 cells (FACS)
Conditions: various concentrations (FIGS. 14 and 15)

Question: With Nc1cc(F)ccc1NC(=O)N1Cc2ccccc2C1 as the compound, how does the “MHC class II protein levels (geometric mean MFI)” value read?
Answer: Its value is “capable of increasing MHC class II protein levels”.
